Experimental data: paper PMC11023938 (Nature, 2024)

Tests used:
[1] = test system: primary mouse fibroblasts; experiment: Proliferation assay (CyQUANT), fibroblasts; assay type: cell-based; details: for Proliferation assay, Fibroblasts: each grid row one replicate
Protocol: (§1) Human umbilical vein endothelial cells (HUVECs; Sigma, 200P-05N) cultured in EGM-2 medium (Lonza, CC-4176) up to 3 passages, and primary mouse fibroblasts from C57BL/6 J mouse tails[26] (passages 2–3) were used. MCDB-131 medium (Thermo Fisher Scientific) with 100 mg ml^−1 penicillin/streptomycin and 2 mM glutamine was employed for proliferation assays. C2C12 mouse myoblasts (CellBank Australia) were cultured in a 1:1 ratio of DMEM to F10 medium (2 mM glutamine, 10% FBS, 100 units ml^−1 penicillin/streptomycin). HaCaT keratinocytes (a gift from R. Boyd) were cultured in DMEM without Ca^2+ and Mg^2+ (2 nM glutamine, 10% Chelex-treated FBS, 0.03 nM calcium chloride, 100 units ml^−1 penicillin/streptomycin) for at least 3 passages. Cells obtained from vendors were authenticated and certified negative for Mycoplasma contamination. For proliferation assays, FBS was reduced to 2% or kept at 10% for 24 h. […] Incubation for 48 h (fibroblasts, C2C12) or 72 h (HUVECs, HaCaTs) at 37 °C with 5% CO2 followed. Proliferation was determined using the CyQUANT Cell Proliferation Assay (Invitrogen), presented as fold change over basal proliferation (medium only). PerkinElmer EnVision multi-mode plate reader with EnSpire Manager software was used.

[2] = test system: Nav1.8^cre/Rosa26^DTA mice; experiment: Full-thickness skin wound model, nociceptor-ablated mice; assay type: in vivo, mouse; details: 1 μg (500 ng CGRP or equimolar eCGRP twice), topical, splinted wounds, D6 post-injury; compared with saline control
[3] = test system: bone marrow-derived neutrophils; experiment: Neutrophil transwell migration; assay type: cell-based, mouse
Protocol: Bone marrow cells were flushed from femora and tibiae of C57BL/6 J mice (8- to 12-week-old) with HBSS without Ca^2+ and Mg^2+ containing 2% FBS and 1 mM EDTA. Cell suspension was passed through a 70-μm strainer. Next, EasySep Mouse Neutrophil Enrichment Kit or EasySep Mouse Monocyte Isolation Kit ([…] Technologies) was used to isolate neutrophils or monocytes according to the manufacturer’s instructions. Neutrophils were resuspended in RPMI containing 100 units ml^−1 penicillin/streptomycin and 10% FBS for cell migration assay and cell death assay or 2% FBS for efferocytosis. Monocytes were cultured in DMEM/F12 (Thermo Fisher Scientific) containing 10% FBS, 2–10 ng ml^−1 M-CSF (PeproTech) and 100 units ml^−1 penicillin/streptomycin for subsequent experiments. RAMP1 and CALCRL were detected on neutrophils and monocytes using rabbit anti-RAMP1 (8.5 μg ml^−1, Alomone Lab, ARR-021) and rabbit anti-calcitonin receptor-like receptor (5 μg ml^−1, Biorbyt, orb526584).
Assays were conducted using 6.5-mm-diameter culture plate inserts (Corning) with 5-μm and 3-μm pore sizes for macrophages and neutrophils, respectively. Macrophages (1 × 10^5) or neutrophils (3 × 10^5) in migration media (DMEM/F12 with 0.25% BSA) were added to the inserts. […] Cells were allowed to migrate through the insert membrane for 3-4 h at 37 °C with 5% CO2. For macrophages, the inserts were then fixed with 4% paraformaldehyde, and cells on the upper side were removed. DAPI (1 μg ml^−1) was used to stain cells on the bottom side, and they were counted using a fluorescent microscope. For neutrophils, cells that migrated into the lower chamber were collected and counted using a haemocytometer. The data are presented as the fold change, calculated by dividing the number of cells that migrated in response to treatments by the number of cells that migrated spontaneously (migration media only).

HaCaT keratinocytes = experiment: Proliferation assay (CyQUANT), keratinocytes; assay type: cell-based; details: for Proliferation assay, Keratinocytes: each grid row one replicate
Protocol: as §1

[4] = test system: bone marrow-isolated neutrophils; experiment: Neutrophil cell death; assay type: cell-based, mouse; details: CGRP 1-20 nM, in the presence of IL-1β and TNF, 12 h
[5] = test system: bone marrow-derived macrophages; experiment: Macrophage cell death; assay type: cell-based, mouse; details: for macrophage death: CGRP 1 or 20 nM

With calcitonin gene-related peptide [CGRP] the “Proliferation assay, Fibroblasts” value ([1]; 1nM CGRP, medium 2% FBS) was 1.10 and 0.72, the “Proliferation assay, Fibroblasts” value ([1]; 1nM CGRP, medium 10% FBS) was 1.03 and 1.06 and 0.94 and 0.82 and 0.97 and 1.10 and the “Proliferation assay, Fibroblasts” value ([1]; 20nM CGRP, medium 2% FBS) was 0.94 and 0.76 and 1.06. The “Proliferation assay, Fibroblasts” value ([1]; 20nM CGRP, medium 10% FBS) was 0.94 and 1.03 and 0.84 and 0.85 and 1.02 and 1.11, the proliferation of fibroblasts ([1]; CGRP 1 or 20 nM, 2% or 10% FBS, 48 h) was “no significant effect” and the “extent of skin wound closure” value [2] was “enhanced the extent”. The “migration of Ramp1−/− neutrophils” value ([3]; CGRP 1 nM, with or without CXCL1) was “did not inhibit”, the “neutrophil migration in the absence of chemokines” value ([3]; CGRP 1 or 20 nM) was “inhibited to some extent” and the “neutrophil migration towards CXCL1” value ([3]; CGRP 1 or 20 nM, CXCL1 150 ng ml−1, 3-4 h) was “severely inhibited”. For the same substance, the “Proliferation assay, Keratinocytes” value (HaCaT keratinocytes; 1nM CGRP, medium 2% FBS) was 1.60 and 1.96 and 1.38 and 1.05, the “Proliferation assay, Keratinocytes” value (HaCaT keratinocytes; 1nM CGRP, medium 10% FBS) was 1.05 and 0.70 and 0.74 and the “Proliferation assay, Keratinocytes” value (HaCaT keratinocytes; 20nM CGRP, medium 2% FBS) was 0.98 and 1.00 and 1.16 and 1.14. For the same substance, the “Proliferation assay, Keratinocytes” value (HaCaT keratinocytes; 20nM CGRP, medium 10% FBS) was 1.17 and 0.81 and 0.84 and 0.94, the proliferation of keratinocytes (HaCaT keratinocytes; CGRP 1 or 20 nM, 2% or 10% FBS, 72 h) was “no significant effect” and the neutrophil death [4] was “increased”. The “effect of CGRP on macrophage death upon Thbs1 knockdown” value ([5]; CGRP 1 nM, Thbs1 siRNA 10 nM, with or without TNF/IL-1) was “abolished”, the macrophage death ([5]; in the presence of IL-1β and TNF) was “increased” and the macrophage death ([5]; without inflammatory cytokines or with cytokines that induce an M2-like polarization) was “did not promote”.

Where “and” joins values, the source holds several entries; their conditions need not be identical. Identical values can stand only once.
